{
  "sequences": {"note": "Sequences of proteins named here, by UniProt entry; tags and fusion partners are left off.", "UniProt P30559, whole entry": "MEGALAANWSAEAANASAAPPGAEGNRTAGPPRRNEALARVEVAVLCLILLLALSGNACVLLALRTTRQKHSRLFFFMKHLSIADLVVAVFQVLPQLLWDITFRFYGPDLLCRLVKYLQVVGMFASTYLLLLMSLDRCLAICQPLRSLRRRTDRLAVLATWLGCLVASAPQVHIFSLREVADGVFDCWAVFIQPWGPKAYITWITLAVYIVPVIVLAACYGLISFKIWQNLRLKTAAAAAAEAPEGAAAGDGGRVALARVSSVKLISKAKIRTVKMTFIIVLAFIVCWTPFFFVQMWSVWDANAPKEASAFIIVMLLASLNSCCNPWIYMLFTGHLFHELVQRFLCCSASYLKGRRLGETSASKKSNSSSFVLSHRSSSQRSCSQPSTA"},
  "source": "patent EP4378525A1",
  "about": "“NON PEPTIDERGIC AGONISTS OF OXYTOCIN RECEPTOR” (Université de Strasbourg, priority 2022, dated 2024)",
  "molecular_target": "oxytocin receptor (Homo sapiens, UniProt P30559)",
  "assay": "IP-One IP1 accumulation assay in CHO cell lines expressing oxytocin receptor (agonist activation)",
  "details": "read-out: OT-R EC50, n=3, tested form: TFA",
  "data": [
    {"smiles": "CN(C)C(=S)[C@@H]1C[C@@H](n2cc(CO)nn2)CN1C(=O)NCc1ccc(C(=O)N2Cc3cnn(C)c3Nc3ccccc32)cc1Cl", "values": [
      {"measurement": "EC50", "result": 2.3, "unit": "nM"}
    ]}
  ]
}
